Our source for the IC50 values is patent publication US9216988B2, “Benzyl sulfonamide derivatives as RORc modulators” (Genentech, Inc., priority 2011, dated 2015).

By UniProt entry, the sequences of proteins in these tests, tags left out. Residues count along the entry.
UniProt P51449, 269-508: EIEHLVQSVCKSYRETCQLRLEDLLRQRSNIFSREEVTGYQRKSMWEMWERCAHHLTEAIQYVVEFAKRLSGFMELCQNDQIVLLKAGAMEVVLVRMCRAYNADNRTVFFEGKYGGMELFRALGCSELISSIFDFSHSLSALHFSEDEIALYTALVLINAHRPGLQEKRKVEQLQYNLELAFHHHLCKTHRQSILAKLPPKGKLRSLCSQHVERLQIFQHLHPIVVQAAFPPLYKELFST

The target in this assay is RORc ligand binding domain (Homo sapiens (Human), UniProt P51449). As to conditions: read-out: RORc IC50; two values in a cell = separated enantiomers, stereochemical identity not determined.

With `CCN1CC[C@H](Nc2ccc(CN(CC(C)C)S(=O)(=O)Cc3ccccc3)cc2)C(F)(F)C1` [Compound 206, (S)-N-(4-((1-ethyl-3,3-difluoropiperidin-4-yl)amino)benzyl)-N-isobutyl-1-phenylmethanesulfonamide], the IC50 was 520 nM.
In the case of `CC(=O)N1CCN(c2ccc(CN(C3CCC3)S(=O)(=O)Cc3cccc(Cl)c3)c(F)c2)CC1` [Compound 89, N-[4-(4-Acetyl-piperazin-1-yl)-2-fluoro-benzyl]-C-(3-chloro-phenyl)-N-cyclobutyl-methanesulfonamide] it was 19 nM; in that of `CC(=O)N1CCN(c2ccc(CN(C3CCC3)S(=O)(=O)c3ccc(C(C)C)cc3)c(F)c2)CC1` [Compound 28, N-[4-(4-Acetyl-piperazin-1-yl)-2-fluoro-benzyl]-N-cyclobutyl-4-isopropyl-benzenesulfonamide], 35 nM.
For `CC(C)CN(C(C)c1ccc(N2CCN(S(=O)(=O)N(C)C)CC2)cc1)S(=O)(=O)Cc1ccccc1` (stereo in doubt) [Compound 129, 4-{4-[(S)-1-(Isobutyl-phenylmethanesulfonyl-amino)-ethyl]-phenyl}-piperazine-1-sulfonic acid dimethylamide], the IC50 is 127 nM.
With `CC(C)CN(Cc1ccc(N2CCC(N(C)C)CC2)cc1)S(=O)(=O)Cc1ccccc1` [Compound 23, N-[4-(4-Dimethylamino-piperidin-1-yl)-benzyl]-N-isobutyl-C-phenyl-methanesulfonamide], the IC50 turned out to be 3000 nM.
The result for `CC(=O)N1CCN(c2ccc(CN(C3CCC3)S(=O)(=O)c3ccc(Cl)cc3)c(F)c2)CC1` [Compound 124, N-[4-(4-Acetyl-piperazin-1-yl)-2-fluoro-benzyl]-4-chloro-N-cyclobutyl-benzenesulfonamide] reads 92 nM; that for `CC(=O)N1CCN(c2ccc(CN(C3CCC3)S(=O)(=O)c3cccc(C(F)(F)F)c3)c(F)c2)CC1` [Compound 125, N-[4-(4-Acetyl-piperazin-1-yl)-2-fluoro-benzyl]-N-cyclobutyl-3-trifluoromethyl-benzenesulfonamide], 99 nM; that for `CC(=O)N1CCN(c2ccc(CN(C3CCC3)S(=O)(=O)CCc3cccc(F)c3)c(F)c2)CC1` [Compound 132, 2-(3-Fluoro-phenyl)-ethanesulfonic acid [4-(4-acetyl-piperazin-1-yl)-2-fluoro-benzyl]-cyclobutyl-amide], 178 nM.
`CN(C)S(=O)(=O)N1CCN(c2ccc(CN(CC(F)(F)F)S(=O)(=O)Cc3ccccc3)c(F)c2)CC1` [Compound 76, 4-(3-Fluoro-4-{[phenylmethanesulfonyl-(2,2,2-trifluoro-ethyl)-amino]-methyl}-phenyl)-piperazine-1-sulfonic acid dimethylamide]: the IC50 turned out to be 32 nM.
For `CC(=O)N1CCN(c2ccc(CN(C3CCC3)S(=O)(=O)c3ccc(F)cc3)c(F)c2)CC1` [Compound 134, N-[4-(4-Acetyl-piperazin-1-yl)-2-fluoro-benzyl]-N-cyclobutyl-4-fluoro-benzenesulfonamide], the IC50 was 218 nM.
The result for `CC(C)CN(Cc1ccc(N2CCC3(COC3)C2)cc1)S(=O)(=O)Cc1ccccc1` [Compound 182, N-(4-(2-oxa-6-azaspiro[3.4]octan-6-yl)benzyl)-N-isobutyl-1-phenylmethanesulfonamide] reads 53 nM; that for `CC(=O)N1CCN(c2ccc(CN(C3CCC3)S(=O)(=O)Cc3ccccc3Cl)c(F)c2)CC1` [Compound 85, N-[4-(4-Acetyl-piperazin-1-yl)-2-fluoro-benzyl]-C-(2-chloro-phenyl)-N-cyclobutyl-methanesulfonamide], 9 nM; that for `CC(=O)N1CCN(c2ccc(CN(C3(C)CC3)S(=O)(=O)Cc3ccccc3)cc2)CC1` [Compound 147, N-(4-(4-acetylpiperazin-1-yl)benzyl)-N-(1-methylcyclopropyl)-1-phenylmethanesulfonamide], 57 nM.
For `CC(=O)N1CCN(c2ccc(CN(CC(C)C)S(=O)(=O)Cc3ccccc3)c(F)c2)CC1` [Compound 73, N-[4-(4-Acetyl-piperazin-1-yl)-2-fluoro-benzyl]-N-isobutyl-C-phenyl-methanesulfonamide], the IC50 came out at 7 nM.
In the case of `O=S1(=O)CCN(c2ccc(CN(CC(F)(F)F)S(=O)(=O)Cc3ccccc3)c(F)c2)CC1` [Compound 94, N-[4-(1,1-Dioxo-thiomorpholin-4-yl)-2-fluoro-benzyl]-C-phenyl-N-(2,2,2-trifluoro-ethyl)-methanesulfonamide] it was 165 nM; in that of `CC(C)CN(Cc1ccc(N[C@H]2CC[C@@H](C#N)CC2)cc1)S(=O)(=O)Cc1ccccc1` [Compound 194, N-(4-(((1S,4S)-4-cyanocyclohexyl)amino)benzyl)-N-isobutyl-1-phenylmethanesulfonamide], 54 nM; in that of `CC(=O)N1CCN(c2ccc(CN(C3CCC3)S(=O)(=O)c3ccc(C(C)(C)C)cc3)c(F)c2)CC1` [Compound 17, N-[4-(4-Acetyl-piperazin-1-yl)-2-fluoro-benzyl]-4-tert-butyl-N-cyclobutyl-benzenesulfonamide], 18 nM.
In the case of `CC(C)CN(Cc1ccc(O[C@@H]2CCN(S(C)(=O)=O)C2)cc1)S(=O)(=O)Cc1ccccc1` [Compound 175, (R)-N-isobutyl-N-(4-((1-(methylsulfonyl)pyrrolidin-3-yl)oxy)benzyl)-1-phenylmethanesulfonamide], the IC50 was found to be 60 nM.
Take `CC(=O)N1CCN(c2ccc(CN(C3CCC3)S(=O)(=O)Cc3cc(Cl)cc(Cl)c3)c(F)c2)CC1` [Compound 80, N-[4-(4-Acetyl-piperazin-1-yl)-2-fluoro-benzyl]-N-cyclobutyl-C-(3,5-dichloro-phenyl)-methanesulfonamide]: the IC50 amounted to 29 nM.
Turning to `CC(=O)N1CCN(c2ccc(CN(C3CCC3)S(=O)(=O)c3ccccc3Cl)c(F)c2)CC1` [Compound 34, N-[4-(4-Acetyl-piperazin-1-yl)-2-fluoro-benzyl]-2-chloro-N-cyclobutyl-benzenesulfonamide], the IC50 amounted to 55 nM.
Consider `CC(=O)N1CCN(c2ccc(CN(C3CCC3)S(=O)(=O)c3ccccc3C(F)(F)F)c(F)c2)CC1` [Compound 47, N-[4-(4-Acetyl-piperazin-1-yl)-2-fluoro-benzyl]-N-cyclobutyl-2-trifluoromethyl-benzenesulfonamide], for which the IC50 amounted to 157 nM.
Consider `CC(=O)N1CCN(c2ccc(CN(C3CCC3)S(=O)(=O)c3cccc(OC(F)F)c3)c(F)c2)CC1` [Compound 123, N-[4-(4-Acetyl-piperazin-1-yl)-2-fluoro-benzyl]-N-cyclobutyl-3-difluoromethoxy-benzenesulfonamide], for which the IC50 came to 77 nM.
`CC(C)CN(Cc1ccc(NC2CCN(C(=O)N(C)C)CC2)cc1)S(=O)(=O)Cc1ccccc1` [Compound 177, 4-((4-((N-isobutyl-1-phenylmethylsulfonamido)methyl)phenyl)amino)-N,N-dimethylpiperidine-1-carboxamide]: the IC50 was 1000 nM.
Regarding `CC(C)CN(Cc1ccc(O[C@H]2C[C@H]3CC[C@@H](C2)N3S(C)(=O)=O)cc1)S(=O)(=O)Cc1ccccc1` [Compound 174, N-isobutyl-N-(4-(((1R,3R,5S)-8-(methylsulfonyl)-8-azabicyclo[3.2.1]octan-3-yl)oxy)benzyl)-1-phenylmethanesulfonamide], the IC50 was found to be 4 nM.
Regarding `CC(C)CN(Cc1ccc(N2CCC(N3CCS(=O)(=O)CC3)CC2)cc1)S(=O)(=O)Cc1ccccc1` [Compound 191, N-(4-(4-(1,1-dioxidothiomorpholino)piperidin-1-yl)benzyl)-N-isobutyl-1-phenylmethanesulfonamide], the IC50 stood at 3200 nM.
In the case of `CS(=O)(=O)N1CCN(c2ccc(CN(CC(F)(F)F)S(=O)(=O)Cc3ccccc3)c(F)c2)CC1` [Compound 75, N-[2-Fluoro-4-(4-methanesulfonyl-piperazin-1-yl)-benzyl]-C-phenyl-N-(2,2,2-trifluoro-ethyl)-methanesulfonamide], the IC50 came out at 56 nM.
For `CC(=O)N1CCN(c2ccc(CN(C3CCC3)S(=O)(=O)c3ccc(Cl)cc3Cl)c(F)c2)CC1` [Compound 38, N-[4-(4-Acetyl-piperazin-1-yl)-2-fluoro-benzyl]-2,4-dichloro-N-cyclobutyl-benzenesulfonamide], the IC50 was determined as 76 nM.
Take `CC(C)CN(Cc1ccc(N2CC3(CCOCC3)C2)cc1)S(=O)(=O)Cc1ccccc1` [Compound 188, N-(4-(7-oxa-2-azaspiro[3.5]nonan-2-yl)benzyl)-N-isobutyl-1-phenylmethanesulfonamide]: the IC50 stood at 67 nM.
The result for `CC(C)CN(Cc1ccc(N[C@@H]2CCN(S(C)(=O)=O)C[C@@H]2F)cc1)S(=O)(=O)Cc1ccccc1` [Compound 199, N-(4-(((3S,4R)-3-fluoro-1-(methylsulfonyl)piperidin-4-yl)amino)benzyl)-N-isobutyl-1-phenylmethanesulfonamide] reads 28 nM; that for `CC(C)CN(Cc1ccc(N2CC(C(=O)N(C)C)C2)cc1)S(=O)(=O)Cc1ccccc1` [Compound 111, 1-{4-[(Isobutyl-phenylmethanesulfonyl-amino)-methyl]-phenyl}-azetidine-3-carboxylic acid dimethylamide], 162 nM; that for `CC(=O)N1CCN(c2ccc(CN(C3CCC3)S(=O)(=O)c3cccc(F)c3)c(F)c2)CC1` [Compound 35, N-[4-(4-Acetyl-piperazin-1-yl)-2-fluoro-benzyl]-N-cyclobutyl-3-fluoro-benzenesulfonamide], 65 nM.
Consider `CC(=O)N1CCN(c2ccc(CN(C3CCC3)S(=O)(=O)c3cccc(C(C)(C)C)c3)c(F)c2)CC1` [Compound 26, N-[4-(4-Acetyl-piperazin-1-yl)-2-fluoro-benzyl]-3-tert-butyl-N-cyclobutyl-benzenesulfonamide], for which the IC50 was found to be 33 nM.
On to `CC(C)CN(Cc1ccc(N[C@@H]2CC[C@H](CC#N)C2)cc1)S(=O)(=O)Cc1ccccc1` [Compound 205, N-(4-(((1R,3S)-3-(cyanomethyl)cyclopentyl)amino)benzyl)-N-isobutyl-1-phenylmethanesulfonamide], for which the concentration for half-maximal inhibition (IC50) stood at 26 nM.
In the case of `CCN1CC[C@@H](Nc2ccc(CN(CC(C)C)S(=O)(=O)Cc3ccccc3)cc2)[C@@H](F)C1` [Compound 207, N-(4-(((3S,4R)-1-ethyl-3-fluoropiperidin-4-yl)amino)benzyl)-N-isobutyl-1-phenylmethanesulfonamide] it was 2200 nM.
